The text below walks through data of patent US20140194321A1 (CELLOMICS, INC., priority 2013, published 2014).

In the data set the test system is U937 cells. As to the kind of experiment: High-content imaging skin sensitizing prediction assay: U937 cells treated 24 h with a range of compound concentrations, CD54 intensity per cell and cell number dose response curves qualified, decision matrix applied. Conditions: skin sensitivity prediction from decision matrix of FIG. 8 (CD54/cell vs cell number); Toxic* = at concentrations tested.

As for Butanol, the Outcome result was “Non-sensitizer”.
